Earlier results in patent US10294273B2, “Macrocyclic peptidomimetics for alpha-helix mimicry” (UNIVERSITY OF ROCHESTER, priority 2014, dated 2019).

Settings: Pazgier, Liu et al. 2009; cited from earlier work

Substance: linear 12-mer peptide TSFAEYWNLLSP (SEQ ID NO: 2) isolated via phage display by Pazgier et al. (Engineered sequence) [PMI]
- efficacy in cell-based assays: ineffective
